# According to patent EP4736885A1, “ANTIBODY-DRUG CONJUGATE AND USE THEREOF” (priority 2023, dated 2025):
# Experiments:
# [1] = test system: breast cancer with low HER2 expression; conditions: cited from earlier work
# [2] = DESTINY-Breast 03 clinical study; cited from earlier work
# [3] = test system: human breast cancer SK-BR-3 cells; assay: In vitro growth inhibition (resazurin); type: cell-based; conditions: SK-BR-3, 168±8 h
# Method: The target cells were collected and resuspended to form a single-cell suspension, and the cell viability and cell count were determined by trypan blue staining. The cell density was adjusted to 1 × 10^5 cells/mL. The cell suspension was added to a 96-well black flat-bottom cell culture plate at 100 µL/well. […] The diluted test samples were added to the 96-well black flat-bottom cell culture plate (pre-seeded with cells) at 20 µL/well. The plate was incubated in a cell incubator (37 °C, 5% CO2) for 168±8 h. A resazurin sodium solution (0.03%) was added at 20 µL/well. The plate was then incubated at 37 °C for 3-4 h. Fluorescence values were measured using a microplate reader at 550 nm/610 nm. Plotting was performed using Prism or similar plotting software, and then the half-maximal inhibitory concentration IC50 values of the reference standard and the test samples were calculated by fitting.
substance,measurement,setting,value
Enhertu,confirmed ORR,[1],37.0%
same,confirmed objective response rate (ORR),[2],79.7%
same,IC50,[3],0.05374 µg/mL
